Tested on: ovarian adenocarcinoma cell lines
Experiment: Cell viability, ovarian adenocarcinoma cell lines taken together
Assay type: cell-based
Settings: cisplatin-sensitive and cisplatin-resistant ovarian cancer cell lines
Description: Cell lines, culture conditions, and reagents. Ovarian adenocarcinoma cell lines A2780 and ACRP were maintained in RPMI 1640 containing 10% fetal bovine serum. Ovarian adenocarcinoma lines CaOV-3 and OV90 were maintained in DMEM supplemented with 10% fetal bovine serum. ID8 mouse ovarian surface epithelial cells (MOSE) overexpressing VEGF and β-Defensin (VDID8+) were maintained in RPMI 1640 supplemented with 10% fetal bovine serum. The polyamine analogue ivospemin (SBP-101) was obtained from Panbela Therapeutics, Inc (Waconia, MN). All chemotherapeutics were purchased commercially from Sigma-Aldrich (St. Louis, MO).
Cell viability assays. Cells were seeded in triplicate wells per condition with a total cell count of 2×10^3 cells per well of a 96-well plate and allowed to adhere overnight. Cells then received 100 μL fresh medium with increasing concentrations of ivospemin. Following 96 hours of ivospemin monotherapy, 20 μL of CellTiter-Blue reagent (Promega, Madison, WI) was added, and following a 3-hour incubation, the fluorescence was measured in black, clear-bottom plates at 560Ex/590Em on a SpectraMax M5 (Molecular Devices, Sunnyvale CA). Wells containing medium alone were used as background controls. […] After an additional 24 hours (96 total hours of ivospemin, 24 hours of chemotherapy), cell viability was determined using the CellTiter-Blue cell viability assay. […]

**Q.** `COc1cccc2c1C(=O)c1c(O)c3c(c(O)c1C2=O)C[C@@](O)(C(=O)CO)C[C@@H]3OC1CC(N)C(O)C(C)O1` (stereo partly drawn) [doxorubicin, (8S,10S)-10-(4-amino-5-hydroxy-6-methyl-tetrahydro-2H-pyran-2-yloxy)-6,8,11-trihydroxy-8-(2-hydroxyacetyl)-1-methoxy-7,8,9,10-tetrahydrotetracene-5,12-dione] was tested. Which “added in vitro toxicity/benefit of the chemotherapeutic over ivospemin (SBP-101) alone” value did it give?
**A.** increased the in vitro toxicity of SBP-101
